# What was measured:
# 4T1 tumors [1] = experiment: Real-time RF-IVM imaging of fluorescent tracer perfusion into 4T1 tumors (imaging algorithm)
# [2] = system: orthotopic PANC-1 pancreatic tumors; experiment: RF-enhanced albumin perfusion in orthotopic PANC-1 pancreatic tumors (immunofluorescent staining); assay type: in vivo, mouse; conditions: orthotopic PANC-1 tumors
# From the text: Nude mice (4-6 wk old) were obtained from Charles River Laboratories, Inc. (Wilmington, Mass.). Breast tumors were established using fluorescent 4T1 td-Tomato Bioware® Ultra Red mouse mammary cancer cells purchased from Caliper Life Sciences (Hopkinton, Mass.). Palpable tumors were used once reaching a size ˜5-7 mm in diameter. Pancreatic PANC-1 tumors were generated by an orthotopic injection of 5×10^5 cells (ATCC, Manassas, Va.) into the pancreas of nude mice (ages 4 to 6 weeks). Palpable tumors were used once reaching a size ˜5-7 mm in diameter (250-350 mm^3). Animals were euthanized via CO2 exposure followed by cervical dislocation. All procedures were performed in accordance with protocols approved by the Institutional Animal Care and Use Committee at Baylor College of Medicine and Houston Methodist Research Institute and according to the NIH Guide for the Care and Use of Laboratory Animals. […]
# Immunofluorescent imaging. The complete macro-perfusion and uptake of fluorescent tracers throughout the tumor in RF and non-RF treated mice was also analyzed ex vivo using immunofluorescent imaging. […] The images were captured using Nikon Al confocal microscope and analyzed using Nikon Elements v3.2. […]
# 4T1 tumors [3] = experiment: RF-enhanced albumin tracer perfusion into 4T1 tumors, immunofluorescent staining (positive area fraction); assay type: in vivo, mouse; conditions: albumin-Alexa Fluor 647 10 mg/Kg retro-orbital, RF until 41° C., n=6
# From the text: Nude mice (4-6 wk old) were obtained from Charles River Laboratories, Inc. (Wilmington, Mass.). Breast tumors were established using fluorescent 4T1 td-Tomato Bioware® Ultra Red mouse mammary cancer cells purchased from Caliper Life Sciences (Hopkinton, Mass.). Palpable tumors were used once reaching a size ˜5-7 mm in diameter. Pancreatic PANC-1 tumors were generated by an orthotopic injection of 5×10^5 cells (ATCC, Manassas, Va.) into the pancreas of nude mice (ages 4 to 6 weeks). Palpable tumors were used once reaching a size ˜5-7 mm in diameter (250-350 mm^3). Animals were euthanized via CO2 exposure followed by cervical dislocation. All procedures were performed in accordance with protocols approved by the Institutional Animal Care and Use Committee at Baylor College of Medicine and Houston Methodist Research Institute and according to the NIH Guide for the Care and Use of Laboratory Animals.
# RF-IVM animal manipulation.
# Immunofluorescent imaging. The complete macro-perfusion and uptake of fluorescent tracers throughout the tumor in RF and non-RF treated mice was also analyzed ex vivo using immunofluorescent imaging. This allowed for comparison to the analysis of perfusion of the tracers into the tumor at μm depths obtained using the IVM system. […] The images were captured using Nikon Al confocal microscope and analyzed using Nikon Elements v3.2. […]
substance,measurement,setting,value
"albumin: fluorescent-bound albumin tracer, MW˜66 kDa, Life Technologies",albumin perfusion from blood vessels into the tumor,4T1 tumors [1]; RF treatment duration 4.5 minutes,perfusion of the albumin tracer out of blood vessels and into the tumor
same,relative tumor dye intensity (RTDI),"4T1 tumors [1]; albumin 10 mg/Kg administered immediately after 30 minutes RF, imaged 25 minutes without RF",rapid increase in RTDI
same,albumin perfusion from the blood network into the tumor,"4T1 tumors [1]; control, no RF, imaged 30 minutes",very little albumin perfused
same,"albumin in the pancreatic tumor (positive area fraction), RF compared to control",[2],approximately six times more albumin
same,"albumin perfusion into the tumor (positive area fraction), RF-treated mice compared to controls",4T1 tumors [3],five times enhancement

# From US20170209579A1, “NON-INVASIVE RADIOFREQUENCY FIELD TREATMENT FOR CANCER THERAPY” (Baylor College of Medicine, priority 2014, published 2017)
